According to patent US7652062B2, “Cyanopyrrole-phenyl amide progesterone receptor modulators and uses thereof” (Wyeth LLC, priority 2005, dated 2010):

Tested on: T47D Cell
Experiment: T47D Cell Alkaline Phosphate Assay
Conditions: read-out: T47D Cell Alkaline Phosphate Assay IC50; T47D cells

| Structure (SMILES) | IC50 [nM] |
| --- | --- |
| Cc1cc(NC#N)ccc1-c1ccc(C#N)n1C | 55 |
| Cc1cc(-c2ccc(C#N)n2C)ccc1NC#N | 67.1 |
